ChEMBL document CHEMBL3860098, “Sulfamide as Zinc Binding Motif in Small Molecule Inhibitors of Activated Thrombin Activatable Fibrinolysis Inhibitor (TAFIa)” (J Med Chem, 2016)

The chains behind the UniProt entries cited, without tags or fusion partners.
UniProt P08684, whole entry: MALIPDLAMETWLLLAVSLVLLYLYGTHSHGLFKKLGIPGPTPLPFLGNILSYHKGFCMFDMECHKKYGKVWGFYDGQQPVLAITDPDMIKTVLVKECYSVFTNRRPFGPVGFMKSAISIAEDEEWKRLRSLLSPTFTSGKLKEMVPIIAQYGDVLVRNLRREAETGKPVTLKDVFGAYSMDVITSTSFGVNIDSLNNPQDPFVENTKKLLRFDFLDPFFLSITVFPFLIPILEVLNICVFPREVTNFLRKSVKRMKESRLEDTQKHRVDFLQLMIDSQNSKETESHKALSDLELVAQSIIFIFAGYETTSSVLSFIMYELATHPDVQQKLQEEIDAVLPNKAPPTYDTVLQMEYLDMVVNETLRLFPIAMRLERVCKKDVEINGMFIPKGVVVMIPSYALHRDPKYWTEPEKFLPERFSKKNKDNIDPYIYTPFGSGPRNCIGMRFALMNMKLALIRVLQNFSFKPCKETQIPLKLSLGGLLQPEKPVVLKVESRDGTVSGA

Assays:
Cytochrome P450 3A4 [1] = target: T1, Cytochrome P450 3A4 (Homo sapiens, UniProt P08684); assay: Inhibition of CYP3A4 in human liver microsomes using midazolam as substrate assessed as suppression of 1'-hydroxymidazolam formation after 10 mins by LC-MS/MS analysis; assay type: ADME, tissue-based
Cytochrome P450 3A4 [2] = target: T1, Cytochrome P450 3A4; assay: Inhibition of CYP3A4 in human liver microsomes using testosterone as substrate assessed as suppression of 6beta-hydroxytestosterone formation after 30 mins by LC-MS/MS analysis; assay type: ADME, tissue-based

- IC50 (Cytochrome P450 3A4 [1]): 12 µM
- IC50 (Cytochrome P450 3A4 [2]): > 30 µM
SMILES: CC1(C)[C@@H]2CC[C@@]1(C)[C@@H](NC(=O)[C@H](CC1CCCCC1)NS(=O)(=O)N[C@@H](CCCCN)C(=O)O)C2.Cl
